This experiment has as its target T1, μ-opioid receptors (Rattus norvegicus, UniProt P33535).
T1 construct: from tissue; host or cells: rat brain homogenate
Description: Opioid receptor binding studies with [3H]DAMGO on rat's brain homogenisates.

The chains behind the UniProt entries cited, without tags or fusion partners.
UniProt P33535, whole entry: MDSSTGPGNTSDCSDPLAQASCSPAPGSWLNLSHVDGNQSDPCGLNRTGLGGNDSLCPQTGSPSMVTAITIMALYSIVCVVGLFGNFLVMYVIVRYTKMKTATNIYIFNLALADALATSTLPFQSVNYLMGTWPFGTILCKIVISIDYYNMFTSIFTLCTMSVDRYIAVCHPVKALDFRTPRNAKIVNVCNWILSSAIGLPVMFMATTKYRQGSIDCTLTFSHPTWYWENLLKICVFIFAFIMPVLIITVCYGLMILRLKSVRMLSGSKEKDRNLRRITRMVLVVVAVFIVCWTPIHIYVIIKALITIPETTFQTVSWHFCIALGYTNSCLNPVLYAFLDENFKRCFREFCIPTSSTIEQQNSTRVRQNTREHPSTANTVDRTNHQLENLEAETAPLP

A word on the Ki: it is the equilibrium dissociation constant of an inhibitor or competing ligand from its target. A lower Ki goes with higher affinity.

`CO[C@@]12CC[C@H](NCC(=O)O)[C@@H]3Oc4c(O)ccc5c4[C@@]31CCN(C)C2C5` [Compound 3, (4,5α-epoxy-3-hydroxy-14β-methoxy-17-methylmorphinan-6α-ylamino)-acetic acid sesqui(trifluoroacetate)] returned a Ki of 0.9 nM.

The record behind these values is patent US20090209570A1 (priority 2001, published 2009).
